## Curated experimental data: properties

Values as listed in the OPERA 2.9 repository of K. Mansouri.

The melting point is given in degrees Celsius.
Boiling points are in °C, nominally at 760 mmHg.
logP is the log10 of the octanol-water partition coefficient; higher is more lipophilic.
Water solubility is log10 of mol/L, nominally at 25 °C; higher is more soluble.
Vapor pressure is log10 of mmHg; the set covers 15 to 30 °C, mostly 20 to 25 °C.
Cells with "n/a" have no entry in this list.

| SMILES | melting point (°C) | bp (°C) | logP | log S (log10 mol/L) | vapor pressure (log10 mmHg) |
|---|---|---|---|---|---|
| OCC(O)COC1CCCCC1 (stereo not given) | -69 | n/a | 1.6 | n/a | -3.205 |
| CCCCCCCCCCCCN(CCCN)CCCN | 9.25 | n/a | n/a | n/a | -6.184 |
| C=CC(C)CCC=C(C)CCC=O (stereo not given) | n/a | n/a | 4.5 | -3.794 | -1.905 |
| C=C(C)[C@H]1CC[C@H](C)C(=O)C1 | -11 | 222 | n/a | n/a | n/a |
| CCCCC1OC(C)CC(C)(C)O1 (stereo not given) | n/a | n/a | 3.94 | -2.453 | -0.24 |
| CCO[Si](C)(N(C)C(=O)c1ccccc1)N(C)C(=O)c1ccccc1 | n/a | n/a | 0.95 | n/a | -4.912 |
| C/C(=C\c1ccc(C)cc1)CCC=O | 9 | 266 | 3.12 | -3.567 | -3.031 |
| CC(C=O)=Cc1ccccc1 | n/a | n/a | 2.471 | -2.397 | n/a |
| COc1ccc(CCC(C)=O)cc1 | n/a | n/a | 2 | -1.919 | -1.108 |
| COc1ccc([N+](=O)[O-])cc1OCCCCl | 92.65 | n/a | 2.595 | n/a | -5.824 |
| O=C(CS)OCCOC(=O)CS | n/a | n/a | 1.33 | n/a | -2.422 |
| O=C(O)c1cccc2cccc(-c3cccc4cccc(C(=O)O)c34)c12 | 289 | n/a | n/a | -2.233 | n/a |
| CCCC1CCC(C2CCC(C(F)(F)Oc3cc(F)c(F)c(F)c3)CC2)CC1 (stereo not given) | 41.9 | 353.5 | n/a | -6.369 | -7.784 |
| CC1=CCC(CC#N)C1(C)C (stereo not given) | -33.5 | n/a | 2.96 | -2.648 | -0.245 |
| C=CCCCCCCCCC(=O)N[C@@H](Cc1ccccc1)C(=O)O | 78.9 | n/a | n/a | -4.04 | -8.355 |
| C=C(COC(C)=O)COC(C)=O | n/a | n/a | 1.15 | n/a | -1.648 |
| CC(=O)OCC(C)(C)COC(C)=O | -10 | n/a | 1.9 | n/a | -1.259 |
| CCCCCCC(O)CCCCCCCCCCC(=O)OCC(O)CO (stereo not given) | 71.5 | n/a | n/a | -3.397 | n/a |
| CCCCCC[C@@H](O)C/C=C\CCCCCCCC(=O)NCCCN(C)C | -31.3 | n/a | 3.37 | -3.559 | n/a |
| Cc1c(N=Nc2ccc(Cl)c(Cl)c2)c(O)n(C)c(=O)c1C#N | 252.5 | n/a | 4.2 | -6.926 | n/a |
| Cc1ccc(S(=O)(=O)Nc2ccc(Nc3ccccc3)cc2)cc1 | 147.1 | n/a | 2.58 | -6.45 | n/a |
| Clc1ccc2ncoc2c1 | 61.3 | n/a | 2.2 | -2.323 | -0.824 |
| O=C(Nc1ccc(Cc2ccc(NC(=O)Oc3ccccc3)cc2)cc1)Oc1ccccc1 | 192.9 | n/a | n/a | -6.836 | n/a |
| CCOC(=O)c1nn(-c2ccc(OC)cc2)c2c1CCN(c1ccc(N3CCCCC3=O)cc1)C2=O | n/a | n/a | n/a | -4.628 | -5.377 |
| FC(F)OC(Cl)C(F)(F)F (stereo not given) | n/a | n/a | n/a | -1.617 | 2.449 |
| Cc1cc(-c2cc(C(C)(C)C)cc(C(C)(C)C)c2)c(O)c(-c2cc(C(C)(C)C)ccc2OCCCOc2ccc(C(C)(C)C)cc2-c2cc(C)cc(-c3cc(C(C)(C)C)cc(C(C)(C)C)c3)c2O)c1 | 186 | n/a | n/a | n/a | -7.206 |
| FC(F)(F)C(F)(F)C(F)(F)F | n/a | n/a | 3 | -4.518 | n/a |
| O=S(=O)(O)CCN1CCN(CCS(=O)(=O)O)CC1 | n/a | n/a | -2.7 | -2.717 | n/a |
| O=C(OC1CCCCC1)c1ccccc1O | 25.8 | n/a | 4.5 | -4.586 | n/a |

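These are experimental values that the OPERA curators gathered from public databases to train and test their QSAR models. A listed value is a point estimate from one report or more. Method, purity and exact conditions of the single measurements are not given. A value may pool stereoisomers or salt forms, and the file does not say which form was measured. Unmarked limits or estimates from the upstream databases cannot be ruled out.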